Molecular target: KPNA4 ARM (importin subunit alpha-3, armadillo repeat domain) (human) (UniProt O00629)
Experiment: fluorescence polarisation; competition: unlabelled peptide in serial dilution against KPNA4 ARM (master mix at four times the KD) with the probe FITC-NCOR2(1307-1322), probe of the minor pocket; 50 mM KPO4 pH 7.5; Ki calculated from IC50

Amino acid sequences for entries named in this document (tags omitted).
UniProt O00629, whole entry: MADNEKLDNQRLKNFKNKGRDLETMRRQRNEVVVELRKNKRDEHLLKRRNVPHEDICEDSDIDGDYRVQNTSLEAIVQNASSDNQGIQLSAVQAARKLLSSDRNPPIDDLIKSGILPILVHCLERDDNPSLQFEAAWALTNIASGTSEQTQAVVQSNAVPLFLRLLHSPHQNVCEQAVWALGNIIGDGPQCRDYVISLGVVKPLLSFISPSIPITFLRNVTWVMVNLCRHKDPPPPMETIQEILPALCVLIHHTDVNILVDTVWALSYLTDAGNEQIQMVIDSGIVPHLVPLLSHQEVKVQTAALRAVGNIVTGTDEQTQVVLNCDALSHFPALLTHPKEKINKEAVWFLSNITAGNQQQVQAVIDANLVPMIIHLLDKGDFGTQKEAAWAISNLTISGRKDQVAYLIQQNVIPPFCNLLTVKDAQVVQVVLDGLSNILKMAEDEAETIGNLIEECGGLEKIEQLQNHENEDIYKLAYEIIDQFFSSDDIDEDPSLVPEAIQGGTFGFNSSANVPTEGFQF

Ki: 360 nM
B1: ZNF532 1139-1154 peptide (peptide)
peptide: PSPKRKLEEPVLEFRP
modifications: C-terminal amide
